Among the data in ChEMBL document CHEMBL1127317 (J Med Chem, 1994) are IC50 values, retold here.

This test is described as follows: Cytotoxic concentration in vitro in well-oxygenated mammalian cells.

One may read the IC50 as the point on the concentration scale where inhibition reaches its midpoint. The low end stands for inhibition by little substance, the high end for a need for much substance. The molecule `Nc1ccc(N(CCCl)CCCl)cc1` came in with an IC50 of 0.07 µM.

As for `NC(=O)c1cc(N(CCCl)CCCl)c(N)cc1[N+](=O)[O-]`, the midpoint of inhibition, the IC50, lay at 10 µM.
